The subject of assay [1] is peripheral blood mononuclear cells (PBMCs) in the presence of HCC1954 tumor cells. Briefly: TNF-α secretion by PBMCs co-incubated with HER2-expressing HCC1954 tumor cells (ELISA). In kind it is cell-based, human. To be noted: 68.4 nM test substance, HCC1954 + PBMC co-incubation, 48 h.
Assay [2] deals with HCC1954 human breast cancer cells. Briefly: Drug efficacy of ISAC in SCID-beige mouse xenograft tumor model (HCC1954). In kind it is in vivo. Conditions: 9.95 mg/kg, single i.p.

As to “Trastuzumab: Trastuzumab monoclonal antibody, comparator and antibody part of the ISACs”, in assay [1], the TNF-α turned out to be 17.39 pg/mL. For the same substance, the “Inhibition rate, TGI % Day 7” value in assay [2] (Day 7) is reported as 17.64%. Further, the “Inhibition rate, TGI % Day 14” value in assay [2] (Day 14) is on record as 1.82%. Further, the “Inhibition rate, TGI % Day 21” value in assay [2] (Day 21) came out at 5.13%. Besides, the “effect on tumor growth (in words)” value in assay [2] (after 21 days) is “no obvious effect”. Moreover, the Tumor regression in assay [2] (animals with regression / animals in group) was 0/6.

Source of the values: patent US20250257071A9, “TRICYCLIC COMPOUND, METHOD FOR PREPARING SAME, AND USE THEREOF” (Sichuan Kelun-Biotech Biopharmaceutical Co., Ltd., priority 2021, published 2025).
